Values of other authors in patent US20040077540A1, “Compositions and methods for modulating physiology of epithelial junctional adhesion molecules for enhanced mucosal delivery of therapeutic compounds” (Nastech Pharmaceutical Company Inc., priority 2002, published 2004).
Like-named read-outs stand apart in the source and are kept apart here.

What was measured:
[1] = 12 MIU (60 μg) dose, Munafo et al. 1998, cited from earlier work
neopterin = details: 12 MIU (60 μg) dose, Munafo et al. 1998, cited from earlier work
β2-microglobulin = details: 12 MIU (60 μg) dose, Munafo et al. 1998, cited from earlier work

Substance | Serum IFN-β AUC0-24 h ([1]; IM) [IU h/ml] | Serum IFN-β tmax ([1]; IM) [h] | Serum neopterin AUC0-144 h (neopterin; IM) [nmol·h/L] | Serum neopterin Cmax (neopterin; IM) [nmol/L] | Serum neopterin tmax (neopterin; IM) [h] | Serum β2-microglobulin AUC0-24 h (β2-microglobulin; IM) [mg·h/L] | Serum β2-microglobulin Cmax (β2-microglobulin; IM) [mg/L] | Serum β2-microglobulin tmax (β2-microglobulin; IM) [h] | Serum IFN-β AUC0-24 h ([1]; SC) [IU h/ml] | Serum IFN-β tmax ([1]; SC) [h] | Serum neopterin AUC0-144 h (neopterin; SC) [nmol·h/L] | Serum neopterin Cmax (neopterin; SC) [nmol/L] | Serum neopterin tmax (neopterin; SC) [h] | Serum β2-microglobulin AUC0-24 h (β2-microglobulin; SC) [mg·h/L] | Serum β2-microglobulin Cmax (β2-microglobulin; SC) [mg/L] | Serum β2-microglobulin tmax (β2-microglobulin; SC) [h]
Avonex ®: interferon-β-1a (Avonex®, Biogen, Inc.) | 65 | 4 | 2974 | 36 | 36 | 270 | 2.3 | 36 | – | – | – | – | – | – | – | –
Rebif ®: interferon-β-1a (Rebif®, Serono) | 70 | 3.5 | 2930 | 35 | 36 | 277 | 2.4 | 36 | 65 | 3 | 2700 | 32 | 36 | 271 | 2.3 | 24
